Tests used:
Format in all cases: functional
Details in all cases: time 22-24 hrs
Staphylococcus aureus [1] = test: Antibacterial activity against methicillin-resistant Staphylococcus aureus NCTC10442 assessed as reduction in microbial growth incubated for 22 to 24 hrs by CLSI based broth microdilution method
Escherichia coli = test: Antibacterial activity against Escherichia coli ATCC25922 assessed as reduction in microbial growth incubated for 22 to 24 hrs by CLSI based broth microdilution method
Staphylococcus aureus [2] = test: Antibacterial activity against methicillin-resistant Staphylococcus aureus N315 assessed as reduction in microbial growth incubated for 22 to 24 hrs by CLSI based broth microdilution method
Staphylococcus aureus [3] = test: Antibacterial activity against Staphylococcus aureus ATCC29213 assessed as reduction in microbial growth incubated for 22 to 24 hrs by CLSI based broth microdilution method

## CC[C@H](C)[C@H](NC(=O)CN)C(=O)NCC(=O)N[C@@H](C)C(=O)N[C@H](C(=O)N[C@@H](CC(C)C)C(=O)N[C@@H](CCCCN)C(=O)N[C@H](C(=O)N[C@@H](CC(C)C)C(=O)N[C@H](C(=O)N[C@H](C(=O)NCC(=O)N[C@@H](CC(C)C)C(=O)N1CCC[C@H]1C(=O)N[C@@H](C)C(=O)N[C@@H](CC(C)C)C(=O)N[C@H](C(=O)N[C@@H](CO)C(=O)N[C@@H](Cc1c[nH]c2ccccc12)C(=O)N[C@H](C(=O)N[C@@H](CCCCN)C(=O)N[C@@H](CCCNC(=N)N)C(=O)N[C@@H](CCCCN)C(=O)N[C@@H](CCCNC(=N)N)C(=O)N[C@@H](CCC(N)=O)C(=O)N[C@@H](CCC(N)=O)C(N)=O)[C@@H](C)CC)[C@@H](C)CC)[C@@H](C)O)[C@@H](C)O)C(C)C)C(C)C [MELITTIN]
Staphylococcus aureus [1]
  MIC: 1.56 µg/mL
Escherichia coli
  MIC: 3.12 µg/mL
Staphylococcus aureus [2]
  MIC: 3.12 µg/mL
Staphylococcus aureus [3]
  MIC: 3.12 µg/mL
